Literature values, collected in patent US20090061024A1, “COMPOSITIONS AND METHODS EMPLOYING NMDA ANTAGONISTS FOR ACHIEVING AN ANESTHETIC-SPARING EFFECT” (Wyeth, priority 2007, published 2009).

The chains behind the UniProt entries cited, without tags or fusion partners. Residues count along the entry.
UniProt Q00959, 20-1464 limits assumed: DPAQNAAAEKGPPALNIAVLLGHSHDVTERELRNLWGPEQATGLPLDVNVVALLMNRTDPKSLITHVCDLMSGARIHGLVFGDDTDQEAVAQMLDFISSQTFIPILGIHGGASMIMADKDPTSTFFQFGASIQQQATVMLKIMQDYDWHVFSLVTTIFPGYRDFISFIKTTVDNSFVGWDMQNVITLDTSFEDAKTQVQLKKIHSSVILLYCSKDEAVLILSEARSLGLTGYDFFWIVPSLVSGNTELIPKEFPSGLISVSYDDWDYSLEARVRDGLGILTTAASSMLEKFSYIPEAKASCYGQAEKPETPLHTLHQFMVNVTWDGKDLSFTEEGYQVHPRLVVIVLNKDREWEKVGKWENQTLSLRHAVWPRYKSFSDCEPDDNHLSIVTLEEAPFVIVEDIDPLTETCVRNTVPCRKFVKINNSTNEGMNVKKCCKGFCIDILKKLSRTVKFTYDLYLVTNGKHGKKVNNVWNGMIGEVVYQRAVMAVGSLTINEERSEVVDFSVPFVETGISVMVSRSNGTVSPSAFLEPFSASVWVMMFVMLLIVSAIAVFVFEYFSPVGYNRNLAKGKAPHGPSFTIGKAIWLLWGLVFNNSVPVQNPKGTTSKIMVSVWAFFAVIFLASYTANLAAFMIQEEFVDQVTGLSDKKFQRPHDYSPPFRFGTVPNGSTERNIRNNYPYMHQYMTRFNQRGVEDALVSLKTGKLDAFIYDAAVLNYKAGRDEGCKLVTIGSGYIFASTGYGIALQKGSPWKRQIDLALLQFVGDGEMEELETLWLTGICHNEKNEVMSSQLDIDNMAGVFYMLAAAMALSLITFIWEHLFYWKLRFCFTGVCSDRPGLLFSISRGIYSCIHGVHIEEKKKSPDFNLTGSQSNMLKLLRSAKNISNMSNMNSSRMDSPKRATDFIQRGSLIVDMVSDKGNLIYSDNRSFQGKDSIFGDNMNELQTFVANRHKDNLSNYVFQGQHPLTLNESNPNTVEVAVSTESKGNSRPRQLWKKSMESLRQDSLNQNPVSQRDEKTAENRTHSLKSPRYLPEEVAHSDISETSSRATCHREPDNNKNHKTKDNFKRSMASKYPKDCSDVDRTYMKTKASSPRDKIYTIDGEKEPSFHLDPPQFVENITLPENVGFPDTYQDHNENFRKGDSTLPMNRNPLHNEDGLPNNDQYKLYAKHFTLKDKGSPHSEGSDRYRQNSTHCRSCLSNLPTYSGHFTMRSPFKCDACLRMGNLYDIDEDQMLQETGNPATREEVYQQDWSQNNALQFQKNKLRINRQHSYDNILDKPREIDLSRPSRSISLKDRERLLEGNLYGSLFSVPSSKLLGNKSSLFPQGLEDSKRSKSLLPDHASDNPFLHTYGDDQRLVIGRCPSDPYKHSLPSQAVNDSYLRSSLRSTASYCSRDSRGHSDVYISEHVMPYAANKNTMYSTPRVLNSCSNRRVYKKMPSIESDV

What was measured:
[1] = tested on: cingulate and retrosplenial cortices; conditions: mice and rats; cited from earlier work
[2] = in vivo; cited from earlier work
[3] = biological target: rodent NMDA receptors possessing the NR2A subunit (Rattus norvegicus, UniProt Q00959); conditions: cited from earlier work

O=c1c2c(c1=O)N(CCP(=O)(O)O)CCCN2 [Perzinfotel, [2-(8,9-dioxo-2,6-diazabicyclo[5.2.0]non-1-(7)-en-2-yl)ethyl]phosphonic acid]
effectiveness:vacuolization ratio [1]: ≤ 16 | doses devoid of many PCP-like effects, relative to those effective in an ischemia model [2]: 4-10 times | selectivity for NMDA receptors possessing the NR2A subunit [3]: 10 fold
